The source of these data is US5840838.

This assay has as its target Glutamine synthetase (GS) in brain cytosolic extract from male mongolian gerbil cortical homogenate (mongolian gerbil).

With “TFE-treated Aβ(1-40) (synthetic amyloid beta peptide, Bachem lot ZM094, after trifluoroethanol solvation and evaporation)”, the loss of GS activity after 3 hours coincubation at 37 C (colorimetric GS assay), relative to initial activity is greater than 90%.

For the substance “Aβ(1-40), native, unmodified synthetic amyloid beta peptide (Bachem lot ZM094)”, the loss of GS activity after 3 hours coincubation at 37 C (colorimetric GS assay), relative to initial activity is 45%.
